Values of other authors, collected in patent publication US6413974B1, “6,9,-disubstituted 2-[trans-(4-aminocyclohexyl) amino] purines” (Aventis Pharmaceuticals Inc., priority 1998, dated 2002).

How the values were obtained:
[1] = tested on: neuronal PC12 cells and sympathetic neurons; conditions: cited from earlier work
[2] = tested on: PC12 cells, or rat sympathetic neurons; conditions: both or individual olomoucine or flavopiridol, in the presence or absence of camptothecin; cited from earlier work

**Q.** With `Cn1cnc2c(NCc3ccccc3)nc(NCCO)nc21` as the compound, how does the “apoptosis of post-mitotic differentiated or sympathetic neurons” value ([1]; following withdrawal of NGF) read?
**A.** prevented apoptosis

**Q.** What about the “death of neuronal PC12 cells and sympathetic neurons” value ([1]; two model systems of neuronal survival, Park et al. 1996) of the same compound?
**A.** suppress the death

**Q.** And the “cell death at day 6” value [2]?
**A.** approximately 30%
